How the values were obtained:
[1] = rat, in vivo
[2] = rat, in vivo; remark: listed apart in the source

SMILES: C[C@H]1Cc2c(ncnc2Oc2ccc3c(ccn3C(=O)Nc3cc(C4(C)CC4)n[nH]3)c2)CN1 [Compound 2, 5-((S)-6-Methyl-5,6,7,8-tetrahydro-pyrido[3,4-d]pyrimidin-4-yloxy)-indole-1-carboxylic acid [5-(1-methyl-cyclopropyl)-2H-pyrazol-3-yl]-amide]
- Dose at which increased severity of tubular basophilia and inflammatory infiltrates was present in the kidney ([1]; Brown Norway): 30 mg/kg/day
- Doses at which acinar cell atrophy and decreased zymogen granules occurred in the pancreas ([1]; Brown Norway): ≥ 10 mg/kg/day
- Doses at which hyalinization/edema of the choroid plexus interstitium and cellular debris affecting small arteries/arterioles were present ([1]; Brown Norway): ≥ 10 mg/kg/day
- Doses at which single cell necrosis of the exocrine pancreas occurred ([1]; Brown Norway): ≥ 3 mg/kg/day
- Doses at which test article-related changes occurred in the pancreas ([1]; Brown Norway): ≥ 3 mg/kg/day
- Doses at which test article-related glomerulopathy was present in the kidney ([1]; Brown Norway): ≥ 10 mg/kg/day
- Histopathological findings, choroid plexus [1]: minimal inflammatory infiltrates that were associated with choroid plexus arterioles
- Histopathological findings, kidney [1]: minimal to mild glomerulopathy
- Histopathological findings, pancreas [1]: single cell necrosis of pancreatic acinar cells and occasional ductal cells
- Safety profile compared to daily dosing, dosing every 2 days or every 4 days ([1]; po): improved safety profile
- Histopathological findings, test article-related changes [2]: no microscopic test article-related changes
